Results as given in EP4431512A1, “NOVEL DUAL NK-1/NK-3 RECEPTOR ANTAGONISTS” (Bayer Consumer Care AG, priority 2023, dated 2024).

Protein sequences, listed by entry. Tags and fused reporters are not part of them.
UniProt P29371, whole entry: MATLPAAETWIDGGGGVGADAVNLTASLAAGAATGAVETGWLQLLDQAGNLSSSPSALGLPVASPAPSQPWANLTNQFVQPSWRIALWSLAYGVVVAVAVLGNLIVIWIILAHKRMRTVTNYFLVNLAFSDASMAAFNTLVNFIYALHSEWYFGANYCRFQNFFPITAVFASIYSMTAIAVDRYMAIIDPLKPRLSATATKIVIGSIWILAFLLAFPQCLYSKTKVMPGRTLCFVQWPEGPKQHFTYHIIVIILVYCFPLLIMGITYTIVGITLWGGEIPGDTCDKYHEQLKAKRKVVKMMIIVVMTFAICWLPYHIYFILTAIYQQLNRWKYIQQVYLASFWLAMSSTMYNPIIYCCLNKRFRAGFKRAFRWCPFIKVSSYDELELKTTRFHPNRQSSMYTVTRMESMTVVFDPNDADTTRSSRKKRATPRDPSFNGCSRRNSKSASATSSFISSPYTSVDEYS

Target: Human NK3 receptor (Homo sapiens, UniProt P29371)
Assay: NK3 receptor binding assay (antagonist radioligand, scintillation counting)
Set-up: expressed in transfected cells; host or cells: CHO cells (membrane preparations)
Settings: affinity of the radioligand for the receptor; CHO cells
Protocol: The radiolabeld NK3 receptor antagonist Osanetant ([^3H]SR 142801) was used at concentrations of 0,4 nM in the binding assay as an antagonistic ligand, while the NK3 receptor antagonist SB 222200 at concentrations of 10µM was used to determine nonspecific binding, which is outlined in the table below, outlining the particulars of the assays.
A scatchard plot is used todetermine the KD.

CC(=O)N(C)C1(c2ccccc2)CCN(CCC[C@]2(c3ccc(Cl)c(Cl)c3)CCCN(C(=O)c3ccccc3)C2)CC1 [[^3H]SR 142801, reference compound]
Kd: 470 pM
